In PubChem BioAssay AID1852 (Sanford-Burnham Center for Chemical Genomics, 2009):
This is a selection; strong and weak results do not stand in their true shares. Active and inactive are the calls of the source.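 Rule for the calls: active = inhibition above 50% at 4 µM in the single-point screen; inactive = inhibition of 50% or less.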

Test: blockers of TNF-a NF-kB luciferase induction – cell-based, HEK293T NF-kB-Luc, luminescence, selectivity assay for NOD1/NOD2 signaling inhibitor project, primary screen (AID 1852)
Conditions: TNF-a induced, 14 h, at 4 µM, stronger effect = higher value
For `O=[N+]([O-])c1ccc(O)c(/C=N/Nc2ccc([N+](=O)[O-])cc2[N+](=O)[O-])c1`, the inhibition was active: 110%.
For `O=c1c2cc([N+](=O)[O-])ccc2[nH]c2c([N+](=O)[O-])cc([N+](=O)[O-])cc12`, the inhibition was active: 77.2%.
For `C[N+]1=C2C=CC=CC=C2SC12C([N+](=O)[O-])=CC([N+](=O)[O-])=C[C-]2[N+](=O)[O-]` (stereo not drawn), the inhibition was active: 103%.
